Measured affinities in a library of Ab-95 light chain variants

The target is the same throughout: PDVDLGDISGINAS, from the HR2 region of SARS-CoV-2 spike.

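The parent was found by panning a naive human phage display library on the peptide. In library AAYL52, one, two or three CDR residues were substituted; doubles and triples were drawn at random. The assay is AlphaSeq: two haploid yeast populations carry antibody and antigen on their surface. Binding brings cells together so that they mate, and sequencing counts the barcode pairs among the diploids. Each replicate has its own calibration line, from reference interactions of the BCL2 family. Mating was done three times.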

Each scFv is VH, a (GGGGS)3 linker, VL, as in the parent Ab-95, and differs from it in the CDRs of the light chain only.
VH: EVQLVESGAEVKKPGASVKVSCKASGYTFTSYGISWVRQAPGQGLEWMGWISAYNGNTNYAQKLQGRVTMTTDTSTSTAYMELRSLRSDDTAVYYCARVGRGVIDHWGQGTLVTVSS
VL: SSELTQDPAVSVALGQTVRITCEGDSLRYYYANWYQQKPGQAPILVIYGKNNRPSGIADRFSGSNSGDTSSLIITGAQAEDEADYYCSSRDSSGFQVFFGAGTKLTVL

The parent's light chain CDRs are EGDSLRYYYAN, GKNNRPS, SSRDSSGFQVF; each variant's own CDRs replace them letter for letter. Scale: log10 of Kd in nM, estimated from mating counts; low values are strong binders. An entry "nd" has no value in the source: the pair was not observed among the diploids in that replicate. This suggests poor binding but is not conclusive. Background: pairings of library AAYL52 with three empty control strains gave a value in 28% of cases (median 3.91, 5th percentile 2.90). Values in that range, when seen in few replicates, are hard to tell from nonspecific mating. The control count says in how many pairings with the empty strains this scFv gave a signal, with their mean in brackets.

| # | CDR-L1 | CDR-L2 | CDR-L3 | log10 Kd (nM) by replicate | control signals |
|---|---|---|---|---|---|
| 1 | EGDSLNYYYAN | GKNNRPS | CVRDSSGFQVF | 2.33 / 2.33 / 1.37 | 1 of 9 (3.63) |
| 2 | EGDSLRYYYAA | GKNNRGS | SSRDSSGGQVF | nd / nd / 3.10 | 3 of 9 (4.05) |
| 3 | EGDSLRYYYSN | GKNNRPS | MSRDSSGGQVF | 2.90 / 2.51 / 2.54 | 7 of 9 (3.66) |
| 4 | EMDSLRYYYAN | GKNNRPS | SSRDSSFYQVF | 3.50 / nd / nd | 2 of 9 (3.52) |
| 5 | EGDSLRYYYAN | GKNNRPS | KSRDSSGDQVI | 1.57 / 1.77 / 1.44 | 0 of 9 |
| 6 | EGDSNRYYYAN | GKNNRPS | SSNDSSGFQVF | nd / 3.36 / 3.35 | 2 of 9 (3.91) |
| 7 | EGDSLRPYYAG | GNNNRPS | SSRDSSGFQVF | nd / nd / nd | 4 of 9 (3.88) |
| 8 | NGDSLEYDYAN | GKNNRPS | SSRDSSGFQVF | 2.19 / 2.46 / 1.73 | 3 of 9 (3.73) |
| 9 | TGDSLRYYNAN | GKNNRPS | SSRLSSGFQVF | 1.46 / 1.56 / 1.21 | 3 of 9 (4.77) |
| 10 | EGFSLRGYYAN | GKNNRPS | SSRDSSPFQVF | nd / nd / nd | 3 of 9 (4.27) |
| 11 | EGDSLGYYYAN | GKLNRPS | SSRDSSGFQVP | nd / 4.83 / nd | 0 of 9 |
| 12 | EGDSLRYYYAF | GKNNRPS | PSRDSSGFQEF | nd / 4.55 / nd | 2 of 9 (4.59) |
| 13 | EGDSLRYYYAN | GKNNRPS | SSRDCMGFVVF | 3.69 / 2.23 / nd | 0 of 9 |
| 14 | EGDSLTYYYAN | GKNNRPS | SLRDSSGVQVF | 2.72 / 3.57 / 2.39 | 2 of 9 (4.97) |
| 15 | EGDSLRYYYAY | GKNNRPI | SSRDSSGFQVF | 4.26 / 5.47 / nd | 4 of 9 (4.35) |
| 16 | EGDSLRYYAAN | GKTNRPS | SSRDSSGFQVE | 1.81 / 1.89 / 1.39 | 3 of 9 (3.45) |
| 17 | YGPSLRYYYAN | GKNNRPS | SSRDSSGFQLF | 1.97 / 2.24 / 1.65 | 2 of 9 (4.75) |
| 18 | EGTALRYYYAN | GKNKRPS | SSRDSSGFQVF | 2.54 / 2.85 / 3.31 | 4 of 9 (3.57) |
| 19 | EGDSLRYYYAN | GKNNRPS | SSRDSSGFEFH | 3.15 / 3.66 / nd | 2 of 9 (3.60) |
| 20 | EGGSLRYYYAN | IKNNRPS | ISRDSSGFQVF | nd / 5.32 / nd | 3 of 9 (3.83) |
| 21 | EEDSLRPYYAN | GKNNRPA | SSRDSSGFQVF | 2.34 / 2.92 / 2.78 | 1 of 9 (5.61) |
| 22 | EGDSLRYYYHN | GKNNRPS | SSRDSSGCYVF | 4.72 / 4.66 / nd | 5 of 9 (4.25) |
| 23 | EGDSLRYEYAN | RKNNRPS | SSRDSSGFQAF | 3.85 / nd / 2.90 | 2 of 9 (4.11) |
| 24 | EGDSLRYYYAN | GKNNRPS | VSRDSLGFQVF | 3.70 / 5.05 / nd | 5 of 9 (4.12) |
| 25 | EGDSLRYYYAN | PKKNRCS | SSRDSSGFQVF | nd / 4.66 / nd | 2 of 9 (5.51) |
| 26 | EHDSLRYYHAN | GKNMRPS | SSRDSSGFQVF | 1.99 / 1.87 / 1.87 | 4 of 9 (3.95) |
| 27 | IGDSLRYYYAN | IKNNRPS | SSRDSSGFFVF | 4.53 / 4.02 / nd | 2 of 9 (3.40) |
| 28 | EGDSLRYYNAP | GRNNRPS | SSRDSSGFQVF | 2.72 / 3.27 / 3.42 | 4 of 9 (3.78) |
| 29 | EGYSLRYYYAN | GKNWYPS | SSRDSSGFQVF | nd / nd / nd | 2 of 9 (3.89) |
| 30 | EGDSLRYYYAN | GENNRPS | SSRDSGGFQVF | 1.52 / 1.89 / 1.29 | 2 of 9 (3.72) |
| 31 | EGDSLRYYYAN | GKNNRPS | SSRDMEGFQVL | 2.27 / 2.38 / 2.05 | 1 of 9 (4.45) |
| 32 | EFDSLRYYYAA | GKNNRPS | SSRDSSIFQVF | 3.55 / nd / nd | 4 of 9 (3.74) |
| 33 | EGHSLRYYYAN | GKNCRPS | SSRDSSGFQDF | 4.37 / nd / nd | 2 of 9 (4.13) |
| 34 | EGDILRYYYAN | GKNNRPS | SSRDSSFHQVF | nd / nd / nd | 2 of 9 (3.24) |
| 35 | EGDSLSYYYAN | GKNNRPS | SSRDSSSFQVE | 2.71 / 3.89 / 2.52 | 2 of 9 (4.54) |
| 36 | EGDSLRYRYAN | GTNNRPS | SSRDSSGQQVF | 1.53 / 1.61 / 1.07 | 4 of 9 (4.29) |
| 37 | EGDSLRIYAAN | GKNNPPS | SSRDSSGFQVF | nd / nd / 3.32 | 4 of 9 (4.40) |
| 38 | EGDSLRYYYAN | GRNNRPS | SCRDSFGFQVF | 2.96 / 3.00 / 3.13 | 1 of 9 (2.50) |
| 39 | NGDSLRYYYAN | GKNNRPS | SSRLSSHFQVF | 3.57 / 3.44 / 3.71 | 0 of 9 |
| 40 | EGDSLRYYYAN | GKNNIPS | SSRDSSGFNVF | 3.25 / 3.11 / 2.83 | 2 of 9 (2.97) |

Excerpt, the first 2 entries:

| CDR-L1 | CDR-L2 | CDR-L3 | log10 Kd (nM) by replicate | control signals |
|---|---|---|---|---|
| EGDSLNYYYAN | GKNNRPS | CVRDSSGFQVF | 2.33 / 2.33 / 1.37 | 1 of 9 (3.63) |
| EGDSLRYYYAA | GKNNRGS | SSRDSSGGQVF | nd / nd / 3.10 | 3 of 9 (4.05) |

Reference: Engelhart et al. 2022, doi:10.1038/s41597-022-01779-4. File: FLAb, binding data.